From patent publication US12642859B2, “Macropinocytosis selective monobody-drug conjugates” (priority 2020, dated 2026)

Tested on: autochthonous KPC pancreatic tumor
Assay: Uptake in genetically modified (autochthonous KPC) mouse model of PDAC
Parameters: species or system mice
Conditions: ex vivo analysis, CK8 staining
Procedure: FIGS. 10A-10D show FN-Cy5.5 uptake in a genetically modified mouse model of PDAC. Autochonous LSL-KPC^G12V; LSLp53^R172H; p48Cre (KPC, 4mo) and wild type (WT, 4 mo) mice were treated with FN-Cy5.5. Ex vivo images of FIG. 10A depict biodistribution in various organs at 1 hr and 24 hr. […] In FIGS. 10C-10D, ex vivo images (6 hr) depict tumor uptake, retention, and colocalization with a cancer cell maker (CK8).
Mice were sacrificed and ex vivo analysis was carried out on tumors displaying albumin-FITC (green), FN-Cy5.5 (purple), tumor cell marker CK8 (orange), and dapi (blue).
Additionally, similar experimentation was carried out with co-delivery of an albumin bound FITC and FN-Cy5.5. Albumin based therapy is a current standard of care in PDAC treatment. Albumin-FITC and FN-Cy5.5 both colocalized within the established pancreatic tumors in mice (FIG. 11).

albumin-FITC was tested, and the “localization within tumor on co-delivery of albumin-FITC and FN-Cy5.5” value was “larger accumulation in the extracellular tumor microenvironment”.
